Data from US11311533B2, “Opioid receptor antagonist conjugate and use thereof” (SHANGHAI HANMAI BIO-PHARMA CO., LTD., priority 2016, dated 2022).

Protein sequences, listed by entry. Tags and fused reporters are not part of them.
UniProt P35372, whole entry: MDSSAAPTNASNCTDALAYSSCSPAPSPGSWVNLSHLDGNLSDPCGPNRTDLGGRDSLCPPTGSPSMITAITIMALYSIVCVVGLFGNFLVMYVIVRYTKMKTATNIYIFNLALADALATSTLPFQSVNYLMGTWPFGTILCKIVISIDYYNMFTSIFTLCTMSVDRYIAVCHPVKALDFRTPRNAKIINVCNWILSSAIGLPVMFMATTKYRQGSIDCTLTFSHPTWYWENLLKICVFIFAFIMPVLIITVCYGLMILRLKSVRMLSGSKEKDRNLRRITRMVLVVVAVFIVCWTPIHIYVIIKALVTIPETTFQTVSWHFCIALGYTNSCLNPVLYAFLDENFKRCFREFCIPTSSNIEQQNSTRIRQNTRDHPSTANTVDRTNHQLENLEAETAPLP

Tests used:
[1] = tested on: mice; assay: Anti-constipation study: antagonizing the antidiarrheal effect of loperamide hydrochloride (castor oil diarrhea); details: Table 10: 600 nmol/kg by gavage + Loperamide Hydrochloride + Castor Oil; tested form: HCl
[2] = molecular target: OPRM1 (Mμ opioid receptor gene) receptor (Homo sapiens, UniProt P35372); details: tested form: HCl
[3] = tested on: mice; assay: Mouse hot plate analgesia experiment (antagonism of morphine analgesia, blood-brain barrier study); assay type: in vivo; details: tested form: HCl; for Average Pain Threshold after Administration (s) Mean ± SD: 60 minutes after administration

C=CCN1CC[C@]23c4c5ccc(O)c4O[C@H]2[C@@H](OCCOCCOCCOCCOCCOCCOC)CC[C@@]3(O)[C@H]1C5
Total Number of Diarrhea Times Six Hours after Administration [1]: 9.75 ± 6.96 | IC50 ([2]; CHO-K1/Gα15/OPRM1 cells, inhibitor detection against EC80 positive agonist, RFU): 1320 nM | Inhibition rate (%) of highest concentration (mean ± standard deviation) (N = 2) ([2]; highest concentration 10000 nM): 90.44 ± 3.22% | Average Pain Threshold before Administration (s) Mean ± SD ([3]; 3.10 μmol/kg + Morphine group): 20.38 ± 4.53 s | Percentage of Increase in Pain Threshold ([3]; 3.10 μmol/kg + morphine): 155.79% | Average Pain Threshold after Administration (s) Mean ± SD ([3]; 3.10 μmol/kg subcutaneous + Morphine by gavage): 52.13 ± 14.78 s | Average Pain Threshold before Administration (s) Mean ± SD ([3]; 15.52 μmol/kg + Morphine group): 24.00 ± 8.38 s | Percentage of Increase in Pain Threshold ([3]; 15.52 μmol/kg + morphine): 112.50% | Average Pain Threshold after Administration (s) Mean ± SD ([3]; 15.52 μmol/kg subcutaneous + Morphine by gavage): 51.00 ± 11.43 s | Passage through the blood-brain barrier (concluded from antagonism of the analgesic effect of morphine) ([3]; mouse hot plate, conjugate subcutaneous after morphine by gavage): cannot pass through the blood-brain barrier
